These results are taken from ChEMBL document CHEMBL2406965, “Optimization of N-benzoylindazole derivatives as inhibitors of human neutrophil elastase” (J Med Chem, 2013).

By UniProt entry, the sequences of proteins in these tests, tags left out. Residues count along the entry.
UniProt P17538, 34-164 limits assumed: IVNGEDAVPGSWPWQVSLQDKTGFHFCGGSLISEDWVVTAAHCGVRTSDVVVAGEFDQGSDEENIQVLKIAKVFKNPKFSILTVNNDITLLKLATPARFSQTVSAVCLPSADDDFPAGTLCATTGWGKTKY
UniProt P17538, 167-263 limits assumed: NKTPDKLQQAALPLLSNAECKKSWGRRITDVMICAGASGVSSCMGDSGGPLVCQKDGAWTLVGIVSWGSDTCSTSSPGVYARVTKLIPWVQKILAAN

The source made the active and inactive calls. The rule behind the calls is not given here.

In one assay the target is T1, Neutrophil elastase (Homo sapiens, UniProt P08246).
T1 sequence (P08246 whole entry): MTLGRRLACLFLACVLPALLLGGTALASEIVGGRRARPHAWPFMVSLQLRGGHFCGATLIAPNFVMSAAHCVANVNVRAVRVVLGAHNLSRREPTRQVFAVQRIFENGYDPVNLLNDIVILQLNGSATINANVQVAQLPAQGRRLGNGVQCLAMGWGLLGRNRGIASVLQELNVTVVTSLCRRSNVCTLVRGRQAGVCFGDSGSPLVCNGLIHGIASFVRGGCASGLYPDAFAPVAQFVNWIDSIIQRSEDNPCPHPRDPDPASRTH
The experiment in a line: Inhibition of human neutrophil elastase using N-methylsuccinyl-Ala-Ala-Pro-Val-7-amino-4-methylcoumarin as substrate measured every 30 seconds for 10 mins by fluorescence microplate reader analysis.

The next assay addresses Chymotrypsinogen B (Homo sapiens, UniProt P17538). The experiment in a line: Inhibition of human pancreatic chymotrypsin using Suc-Ala-Ala-Pro-7-amino-4-methylcoumarin as substrate by fluorescence microplate reader analysis.
Assay [1] deals with T2, Neutrophil elastase (Homo sapiens) (UniProt P08246).
T2 sequence (whole entry): T1 sequence (P08246 whole entry)
In words: Inhibition of human neutrophil elastase using N-methylsuccinyl-Ala-Ala-Pro-Val-7-amino-4-methylcoumarin as substrate at 5 uM after 4 hrs by fluorescence microplate reader analysis.

The IC50 is the point on the concentration scale where inhibition reaches its midpoint. For the compound `COC(=O)c1nn(C(=O)c2cccc(C)c2)c2ccc([N+](=O)[O-])cc12`, the IC50 at Neutrophil elastase and against Chymotrypsinogen B was 15 nM in each case.

Take `COC(=O)c1nn(C(=O)c2cccc(C)c2)c2cc([N+](=O)[O-])ccc12`: the inhibition entry in assay [1] was “Active”.

The compound `CCOC(=O)c1nn(C(=O)c2cccc(C)c2)c2ccc(NC(C)=O)cc12` returned an IC50 against Chymotrypsinogen B of 170 nM.
